The values below come from patent publication US7498347B2, “Hydroxycarbonylphenyl substituted 4-(aminomethyl)-piperidine benzamides as 5HT4 antagonists” (Janssen Pharmaceutica, N.V., priority 2004, dated 2009).

Protein sequences, listed by entry. Tags and fused reporters are not part of them.
UniProt Q13639, whole entry: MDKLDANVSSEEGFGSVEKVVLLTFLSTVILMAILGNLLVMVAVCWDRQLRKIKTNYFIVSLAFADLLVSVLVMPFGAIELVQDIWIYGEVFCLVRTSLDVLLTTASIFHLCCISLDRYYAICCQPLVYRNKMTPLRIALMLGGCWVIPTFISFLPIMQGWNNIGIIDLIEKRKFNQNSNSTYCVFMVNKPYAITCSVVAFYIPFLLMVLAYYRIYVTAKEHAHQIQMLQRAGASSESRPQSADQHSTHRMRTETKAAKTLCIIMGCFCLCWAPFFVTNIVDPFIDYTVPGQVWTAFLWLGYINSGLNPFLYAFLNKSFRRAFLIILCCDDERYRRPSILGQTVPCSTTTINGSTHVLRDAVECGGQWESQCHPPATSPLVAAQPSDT

Series [1] addresses h5-HT4b (Homo sapiens, UniProt Q13639). The series is described as follows: 5HT4 antagonism: [3H]GR113808 binding to membranes of h5-HT4b-HEK 293 clone 9 cells. To be noted: displacement of [3H]GR113808 0.1 nM, h5-HT4b-HEK 293 membranes, 30 min at 25° C. As for the experimental part: h5-HT4b-HEK 293 clone 9 cells were cultured in 150 mm Petri dishes and washed twice with cold PBS. The cells were then scraped from the plates and suspended in 50 mM Tris-HCl buffer, pH 7.4 and harvested by centrifugation at 23,500 rpm for 10 minutes. The pellet was resuspended in 5 mM Tris-HCl, pH 7.4 and homogenized with an Ultra Turrax homogenizer. The membranes were collected by centrifugation at 30,000 rpm for 20 min, resuspended in 50 mM Tris-HCl pH 7.4 and stored at −80° C. For the experiment, assay mixtures (0.5 ml) contained 50 μl of the tritiated ligand (5-HT4 antagonist [^3H]GR113808 0.1 nM) and 0.4 ml membrane preparation (15 μg protein/ml). 50 μl of 10% DMSO was added for total binding. 50 μl of 1 μM of (+)-trans-(1-butyl-3-hydroxy-4-piperidinyl)methyl 8-amino-7-chloro-2,3-dihydro-1,4-benzodioxin-5-carboxylate (a proprietary 5HT4 agonist of Janssen Pharmaceutica) was added for determination of non-specific binding.
The [^3H]GR113808 assay buffer was 50 mM HEPES-NaOH, pH 7.4. The mixtures were incubated for 30 min at 25° C. The incubation was terminated by filtration over a Unifilter 96 GF/B presoaked in 0.1% polyethylenimine, followed by six washing steps with 50 mM HEPES-NaOH, pH 7.4.
(In general: In a radioligand displacement assay an active substance lowers the binding of a labelled ligand.)

The nature of series [2]: Metabolic stability in liver microsomes, LC-MS analysis. To be noted: compound 5 μM, microsomes 1 mg/ml, NADPH-generating system, 60 minutes at 37 degrees Celsius. The method, then:
Sub-cellular tissue preparations were made according to Gorrod et al. (Xenobiotica 5: 453-462, 1975) by centrifugal separation after mechanical homogenization of tissue. Liver tissue was rinsed in ice-cold 0.1 M Tris-HCl (pH 7.4) buffer to wash excess blood. Tissue was then blotted dry, weighed and chopped coarsely using surgical scissors. The tissue pieces were homogenized in 3 volumes of ice-cold 0.1 M phosphate buffer (pH 7.4).
Tissue homogenates were centrifuged at 9000×g for 20 minutes at 4° C. The resulting supernatant was stored at −80° C. and is designated ‘S9’.
The S9 fraction can be further centrifuged at 100.000×g for 60 minutes (4° C.). The resulting supernatant was carefully aspirated, aliquoted and designated ‘cytosol’. The pellet was re-suspended in 0.1 M phosphate buffer (pH 7.4) in a final volume of 1 ml per 0.5 g original tissue weight and designated ‘microsomes’.
All sub-cellular fractions were aliquoted, immediately frozen in liquid nitrogen and stored at −80° C. until use.
For the samples to be tested, the incubation mixture contained PBS (0.1M), compound (5 μM), microsomes (1 mg/ml) and a NADPH-generating system (0.8 mM glucose-6-phosphate, 0.8 mM magnesium chloride and 0.8 Units of glucose-6-phosphate dehydrogenase). Control samples contained the same material but the microsomes were replaced by heat inactivated (10 minutes at 95 degrees Celsius) microsomes. Recovery of the compounds in the control samples was always 100%.
The mixtures were preincubated for 5 minutes at 37 degrees Celsius. The reaction was started at time point zero (t=0) by addition of 0.8 mM NADP and the samples were incubated for 60 minutes (t=60). The reaction was terminated by the addition of 2 volumes of DMSO. Then the samples were centrifuged for 10 minutes at 900×g and the supernatants were stored at room temperature for no longer as 24 hours before analysis. All incubations were performed in duplo. […]
Metabolic stability was expressed as % metabolism of the compound after 60 minutes (equation given as example) of incubation in the presence of active microsomes (E(act))

On to `Cc1ccc(C(=O)NC[C@@H]2CCN(CCCOc3ccccc3C(=O)O)C[C@H]2O)c2c1OCCCO2`, for which, in series [1] (tested form: H2O), the “pIC50 (5HT4 antagonistic data)” value turned out to be 7.02. Besides, the “% metabolized (% metabolised compound after 60 minutes)” value (from here on “% metabolized”) in series [2] (tested form: H2O) amounted to 6.5%. With `CO[C@@H]1CN(CCCOc2ccc(C(=O)O)cc2)CC[C@H]1CNC(=O)c1cc(Cl)c(Br)c2c1OCCCO2` (relative stereo), in series [1] (tested form: HCl, H2O (2:3)), the “pIC50 (5HT4 antagonistic data)” value is given as 8.15. The “% metabolized” value in series [2] (tested form: HCl, H2O (2:3)) came out at 20%. For `CO[C@@H]1CN(CCCOc2ccc(C(=O)O)cc2)CC[C@H]1CNC(=O)c1cc(F)cc2c1OCCCO2` (relative stereo), the “pIC50 (5HT4 antagonistic data)” value in series [1] turned out to be 7.74. On to `O=C(O)c1cccc(OCCCN2CC[C@@H](CNC(=O)c3cc(Cl)cc4c3OCCCO4)[C@H](O)C2)c1` (relative stereo), for which, in series [1], the “pIC50 (5HT4 antagonistic data)” value was found to be 7.5. Moreover, the “% metabolized” value in series [2] is given as 13.5%.
